ChEMBL document CHEMBL1129295, “Studies of cardiotonic agents. 8. Synthesis and biological activities of optically active 6-(4-(benzylamino)-7-quinazolinyl)-4,5-dihydro-5-methyl-3(2H)- pyridazinone (KF15232)” (J Med Chem, 1996)

Sequences of proteins named here, by UniProt entry; tags and fusion partners are left off.
UniProt E1BN64, whole entry: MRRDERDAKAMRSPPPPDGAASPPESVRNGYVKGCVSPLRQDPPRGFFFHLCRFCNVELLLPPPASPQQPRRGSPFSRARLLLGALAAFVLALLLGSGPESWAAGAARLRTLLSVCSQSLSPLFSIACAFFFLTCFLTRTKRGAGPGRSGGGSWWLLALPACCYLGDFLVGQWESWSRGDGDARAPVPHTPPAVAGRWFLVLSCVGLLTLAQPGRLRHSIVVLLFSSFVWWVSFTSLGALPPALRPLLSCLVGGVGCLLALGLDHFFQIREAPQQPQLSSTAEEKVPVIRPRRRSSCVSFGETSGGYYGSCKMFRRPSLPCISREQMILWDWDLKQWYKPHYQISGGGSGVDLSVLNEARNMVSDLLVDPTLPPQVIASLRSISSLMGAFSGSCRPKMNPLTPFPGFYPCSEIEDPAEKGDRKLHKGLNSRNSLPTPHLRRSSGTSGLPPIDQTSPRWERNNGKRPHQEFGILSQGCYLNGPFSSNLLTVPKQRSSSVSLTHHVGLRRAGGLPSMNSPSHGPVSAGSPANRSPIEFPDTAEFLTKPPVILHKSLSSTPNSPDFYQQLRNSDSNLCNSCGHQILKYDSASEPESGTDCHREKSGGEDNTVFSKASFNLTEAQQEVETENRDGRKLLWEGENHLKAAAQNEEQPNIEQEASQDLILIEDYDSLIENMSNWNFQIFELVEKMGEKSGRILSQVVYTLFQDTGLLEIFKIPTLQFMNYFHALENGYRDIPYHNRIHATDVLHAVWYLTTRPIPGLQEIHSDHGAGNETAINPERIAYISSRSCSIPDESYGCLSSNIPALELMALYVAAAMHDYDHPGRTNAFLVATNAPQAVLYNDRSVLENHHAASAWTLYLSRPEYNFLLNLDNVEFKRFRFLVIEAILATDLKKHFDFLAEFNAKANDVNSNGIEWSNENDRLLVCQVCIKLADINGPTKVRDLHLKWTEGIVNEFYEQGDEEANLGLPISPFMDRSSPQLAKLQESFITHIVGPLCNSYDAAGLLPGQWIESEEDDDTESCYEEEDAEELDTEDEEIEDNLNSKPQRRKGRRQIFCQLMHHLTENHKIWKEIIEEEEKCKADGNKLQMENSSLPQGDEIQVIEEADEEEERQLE

Tests used:
[1] = molecular target: cGMP-specific 3',5'-cyclic phosphodiesterase (Bos taurus, UniProt Q28156); experiment: Inhibition of bovine arterial Phosphodiesterase 5
Phosphodiesterase 3B = Phosphodiesterase 3B (Bos taurus, UniProt E1BN64); experiment: Inhibition of bovine arterial Phosphodiesterase 3

Structure (SMILES)	IC50 [1] [nM]	IC50 (Phosphodiesterase 3B) [nM]
CC1CC(=O)NN=C1c1ccc2c(NCc3ccccc3)ncnc2c1 (racemic)	46	50
C[C@@H]1CC(=O)NN=C1c1ccc2c(NCc3ccccc3)ncnc2c1	10	5
C[C@H]1CC(=O)NN=C1c1ccc2c(NCc3ccccc3)ncnc2c1	1000	3000
